# Apparent affinities of Ab-14 variants for a coronavirus HR2 peptide

Target peptide (SARS-CoV-2 spike, HR2 region): PDVDLGDISGINAS

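These sequences belong to a second round, designed from the earlier measurements on random variants of the parent. Their group label is 14L_En_Gibbs (En: ensemble of fine-tuned language models; Gibbs: Gibbs sampling). The assay is AlphaSeq: two haploid yeast populations carry antibody and antigen on their surface. After mating in shaken culture at 30 °C for 16 h, diploids were selected and their barcode pairs sequenced. A regression on co-assayed BCL2-family reference pairs converts the normalised counts of each replicate to an apparent Kd. Each pool was mated in six replicate cultures.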

Parent scFv Ab-14: VH joined to VL by three GGGGS repeats. Changes lie in the light chain CDRs alone.
VH: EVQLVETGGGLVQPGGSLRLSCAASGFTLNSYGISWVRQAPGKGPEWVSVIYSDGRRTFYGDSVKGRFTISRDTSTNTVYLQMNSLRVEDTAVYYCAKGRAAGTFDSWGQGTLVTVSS
VL: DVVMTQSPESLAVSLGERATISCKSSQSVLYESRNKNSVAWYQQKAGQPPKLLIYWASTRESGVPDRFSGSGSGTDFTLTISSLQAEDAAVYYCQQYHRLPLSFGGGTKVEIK

The whole VL of each variant is written out. The read-out is the apparent dissociation constant on a log10 scale (nM): the lower, the stronger. A mean of the replicates is given; it leaves out those without a signal. A pair that was not seen in that replicate is written "nd"; this usually means weak binding, but a binder can also be missed.

VL,log10 Kd (nM) by replicate,"log10 Kd (nM), mean",control signals
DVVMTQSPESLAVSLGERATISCKLQQESNNMNDIQNSVAWYQQKAGQPPKLLIYDESMLETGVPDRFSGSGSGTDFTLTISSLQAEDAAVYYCQHYWRLPLTFGGGTKVEIK,nd nd nd nd nd nd,nd,0 of 18
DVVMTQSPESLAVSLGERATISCAISQMLEPAAQNSSSIAWYQQKAGQPPKLLIYEADRVTEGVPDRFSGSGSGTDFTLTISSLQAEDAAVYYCQQYHKLPLTFGGGTKVEIK,1.94 1.63 1.89 3.00 1.94 3.24,2.27,0 of 18
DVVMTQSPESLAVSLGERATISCQFHSTMAGDQRNVHSIAWYQQKAGQPPKLLIYNATAAVPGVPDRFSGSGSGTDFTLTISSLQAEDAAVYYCQQYFRLPLSFGGGTKVEIK,0.68 0.11 0.10 0.29 0.25 0.73,0.36,0 of 18
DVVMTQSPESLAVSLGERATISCMLSQVHDYNGYRGNSIAWYQQKAGQPPKLLIYNVDERNTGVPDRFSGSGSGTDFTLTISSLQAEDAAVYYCQQYKQLPLIFGGGTKVEIK,0.36 0.18 0.18 0.44 0.00 0.61,0.30,1 of 18 (1.31)
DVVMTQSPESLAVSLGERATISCKLDMNELGYSQLSSSVAWYQQKAGQPPKLLIYGSANKCQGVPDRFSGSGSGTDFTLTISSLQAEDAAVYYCQQYFRLPLSFGGGTKVEIK,-0.02 -0.72 -0.24 -0.49 -0.19 -0.32,-0.33,0 of 18
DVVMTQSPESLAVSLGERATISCHMLYQFNTGSLRVNNVAWYQQKAGQPPKLLIYEGATVLDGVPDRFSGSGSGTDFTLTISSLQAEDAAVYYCQQYFRLPITFGGGTKVEIK,1.75 1.91 0.65 0.61 1.37 1.60,1.32,0 of 18
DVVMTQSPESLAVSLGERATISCTLYMGPTEARDSKHAIAWYQQKAGQPPKLLIYNMNERDRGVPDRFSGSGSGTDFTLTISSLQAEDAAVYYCQQYHRLPLVFGGGTKVEIK,0.41 0.39 0.33 0.26 0.45 0.55,0.40,1 of 18 (3.34)
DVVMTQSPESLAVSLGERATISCSLVQKADYMDSERNNIAWYQQKAGQPPKLLIYNGRLRNEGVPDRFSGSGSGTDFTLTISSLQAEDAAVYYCQQYFHLPLTFGGGTKVEIK,0.10 0.00 0.79 0.30 0.02 1.08,0.38,0 of 18
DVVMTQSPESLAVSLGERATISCHIDDFEPSEGLKWNAIAWYQQKAGQPPKLLIYGDATRLQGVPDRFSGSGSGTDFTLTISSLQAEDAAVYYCQAYARLPLSFGGGTKVEIK,1.93 1.46 1.84 1.35 1.80 1.53,1.65,2 of 18 (2.67)
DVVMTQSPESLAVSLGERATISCMVTMELRYGDEWQNPIAWYQQKAGQPPKLLIYNASHKEAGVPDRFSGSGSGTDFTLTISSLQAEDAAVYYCQQYDHLPLGFGGGTKVEIK,0.83 0.74 0.98 1.06 1.47 0.74,0.97,3 of 18 (2.39)
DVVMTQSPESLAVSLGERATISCDVHALMNHSSDLMQSIAWYQQKAGQPPKLLIYDDSCRDAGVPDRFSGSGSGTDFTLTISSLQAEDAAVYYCQQYERLPLSFGGGTKVEIK,1.86 1.90 1.78 1.73 2.02 1.88,1.86,0 of 18
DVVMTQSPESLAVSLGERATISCLLWQDFYNGRSQANAVAWYQQKAGQPPKLLIYEGNQLASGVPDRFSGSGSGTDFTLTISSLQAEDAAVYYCQQYARLPLVFGGGTKVEIK,0.71 0.54 0.70 0.14 0.50 0.57,0.53,0 of 18
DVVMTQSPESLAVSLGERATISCSLSESEREENSVEQNIAWYQQKAGQPPKLLIYDGTEHMRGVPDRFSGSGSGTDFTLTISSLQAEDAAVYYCQQYFQLPLLFGGGTKVEIK,0.96 1.16 1.06 1.28 0.79 1.32,1.10,0 of 18
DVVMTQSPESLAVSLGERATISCNVHALDAISSEFQNSIAWYQQKAGQPPKLLIYDQECRDAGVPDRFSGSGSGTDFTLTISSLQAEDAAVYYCQQYFRLPLSFGGGTKVEIK,1.37 1.38 1.88 0.91 0.96 1.56,1.34,0 of 18
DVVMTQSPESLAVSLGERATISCRMEWHNSGLLEAKNSVAWYQQKAGQPPKLLIYGVEHRANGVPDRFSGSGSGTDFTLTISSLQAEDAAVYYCQQYMRLPLEFGGGTKVEIK,0.05 -0.02 -0.08 -0.34 -0.09 0.17,-0.05,0 of 18
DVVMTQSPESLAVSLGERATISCSLQESEREMDSHEQNIAWYQQKAGQPPKLLIYDGTEHMRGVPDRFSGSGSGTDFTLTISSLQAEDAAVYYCQQYFQLPLHFGGGTKVEIK,1.13 1.86 0.95 0.90 0.84 1.30,1.16,1 of 18 (2.01)
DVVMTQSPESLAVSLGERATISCHISSMDMHDGGIMHSIAWYQQKAGQPPKLLIYDTGITERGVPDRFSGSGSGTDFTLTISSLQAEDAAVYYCQQYMRLPLSFGGGTKVEIK,0.88 -0.05 nd nd nd 0.05,0.30,1 of 18 (0.33)
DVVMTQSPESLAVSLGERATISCMLPESLPQQQTNVNAVAWYQQKAGQPPKLLIYGAQHTAVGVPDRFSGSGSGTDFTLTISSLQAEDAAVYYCQQYGRLPLTFGGGTKVEIK,0.42 0.41 0.47 0.23 0.48 0.46,0.41,2 of 18 (2.55)
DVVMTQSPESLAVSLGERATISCKLSQGTYGLTGHASNVAWYQQKAGQPPKLLIYHDEMRWEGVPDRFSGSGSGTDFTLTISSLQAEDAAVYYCQQYHKLPLIFGGGTKVEIK,nd nd nd 2.96 nd nd,2.96,0 of 18
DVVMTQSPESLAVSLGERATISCKLDSHEQHGTAQNSAMAWYQQKAGQPPKLLIYSATVSTQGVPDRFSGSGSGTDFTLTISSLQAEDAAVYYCQQYSRLPLSFGGGTKVEIK,nd 2.56 1.57 2.07 2.46 1.81,2.09,0 of 18
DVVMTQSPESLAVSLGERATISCHLGQEGYNQTYAMDSVAWYQQKAGQPPKLLIYDQNTALEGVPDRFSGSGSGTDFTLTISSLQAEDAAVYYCQHYSRLPLTFGGGTKVEIK,nd nd nd nd nd nd,nd,0 of 18
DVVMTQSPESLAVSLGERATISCVLSDTIENQYDEADNIAWYQQKAGQPPKLLIYDATETSKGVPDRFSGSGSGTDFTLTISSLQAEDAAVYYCQQYARLPLSFGGGTKVEIK,1.13 1.03 2.40 1.93 0.57 1.22,1.38,0 of 18
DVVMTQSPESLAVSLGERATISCQISMNLEIYDQEQWNVAWYQQKAGQPPKLLIYHGEMRTEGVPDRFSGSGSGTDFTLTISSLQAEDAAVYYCQQYHKLPLSFGGGTKVEIK,1.09 0.88 0.94 0.54 0.95 0.98,0.90,0 of 18

Again, the first 2 entries without any signal:

{"VL": "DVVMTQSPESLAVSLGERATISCKLQQESNNMNDIQNSVAWYQQKAGQPPKLLIYDESMLETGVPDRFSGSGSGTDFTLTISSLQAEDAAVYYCQHYWRLPLTFGGGTKVEIK", "log10 Kd (nM) by replicate": "nd nd nd nd nd nd", "log10 Kd (nM), mean": "nd", "control signals": "0 of 18"}
{"VL": "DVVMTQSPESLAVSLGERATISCHLGQEGYNQTYAMDSVAWYQQKAGQPPKLLIYDQNTALEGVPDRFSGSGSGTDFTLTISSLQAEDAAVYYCQHYSRLPLTFGGGTKVEIK", "log10 Kd (nM) by replicate": "nd nd nd nd nd nd", "log10 Kd (nM), mean": "nd", "control signals": "0 of 18"}

Background: pairings of all light chain designs with three empty control strains gave a value in 4% of cases (median 2.64, 5th percentile 1.59). Values in that range, when seen in few replicates, are hard to tell from nonspecific mating. Also given: how often the same scFv was detected with the empty control strains, with their mean in brackets. A sequence measured in both rounds can read differently, since the two assays cover different ranges. The authors averaged sequences with at least three values out of six and counted those with two or fewer as poor binders. Of ten entries with the parent sequence, four were seen in most replicates (averages 0.34 to 2.37), three in one and three in none, so single entries are noisy.

The measurements come from Li et al. 2023 (doi:10.1038/s41467-023-39022-2) through the FLAb antibody collection.